Molecular target: p53-MDM2 interaction (Homo sapiens, UniProt Q00987)
Assay: HTRF p53-MDM2 interaction counter assay
Assay type: binding

By UniProt entry, the sequences of proteins in these tests, tags left out. Where a name states a change or a piece, a line headed by the entry shows the natural chain unless it says otherwise.
UniProt Q00987: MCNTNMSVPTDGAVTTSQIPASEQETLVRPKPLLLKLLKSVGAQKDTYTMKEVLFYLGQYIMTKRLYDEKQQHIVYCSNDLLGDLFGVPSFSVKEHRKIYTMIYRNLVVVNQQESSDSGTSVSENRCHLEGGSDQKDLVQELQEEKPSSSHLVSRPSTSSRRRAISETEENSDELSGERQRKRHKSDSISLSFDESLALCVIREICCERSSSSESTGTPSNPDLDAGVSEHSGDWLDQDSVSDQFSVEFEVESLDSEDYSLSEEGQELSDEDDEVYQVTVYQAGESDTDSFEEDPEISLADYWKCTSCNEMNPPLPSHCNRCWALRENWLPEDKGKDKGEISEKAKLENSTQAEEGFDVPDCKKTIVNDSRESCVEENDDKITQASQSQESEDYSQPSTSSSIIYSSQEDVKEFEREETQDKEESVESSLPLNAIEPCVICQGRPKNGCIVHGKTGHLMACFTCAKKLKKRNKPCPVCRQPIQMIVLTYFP

With Nutlin the “effect on p53-MDM2 interaction” value was “inhibited”.
